{"source": "paper PMC8958505", "about": "“Discovery of Potential Neuroprotective Agents against Paclitaxel-Induced Peripheral Neuropathy” (Journal of Medicinal Chemistry, 2022)", "key": {"Melatonin MT1": {"biological_target": "Melatonin MT1 (Homo sapiens, UniProt P48039)", "test": "LeadProfilingScreen: Melatonin MT1", "assay_type": "binding"}, "Endothelin ETB": {"biological_target": "Endothelin ETB (Homo sapiens, UniProt P24530)", "test": "LeadProfilingScreen: Endothelin ETB", "assay_type": "binding"}, "Histamine H2": {"biological_target": "Histamine H2 (Homo sapiens, UniProt P25021)", "test": "LeadProfilingScreen: Histamine H2", "assay_type": "binding"}, "[1]": {"test_system": "Calcium Channel L-Type, Dihydropyridine", "test": "LeadProfilingScreen: Calcium Channel L-Type, Dihydropyridine", "assay_type": "binding, rat", "conditions": "10 μM"}, "C57BL/6 mice": {"test_system": "C57BL/6 mice", "test": "Rotarod performance test (motor coordination)", "assay_type": "in vivo, mouse", "conditions": "pretreated CN016 + paclitaxel", "protocol": "Three behavioral models of paclitaxel-induced neuropathy were used to verify the neuroprotective effect of CN016. Namely, thermal and mechanical nociceptive reactions described below were evaluated by tail immersion and von Frey filament tests, respectively, and motor coordination was assessed with the rotarod performance test (Supporting Information, Figure S1A,B). To mimic the clinical therapeutic regimen, CN016 (5, 10 and 20 mg/kg) was administrated to 7-week-old female C57BL/6 mice by intraperitoneal injection (IP) 1 h prior to each injection of paclitaxel (4.5 mg/kg) on four alternate days (days 1, 3, 5, and 7). Each test’s basal level was recorded before treatment, and additional sessions of behavior tests were performed weekly for five weeks (Figure 4A).\nThe baseline of every neurological behavior test was measured in 6-week-old C57BL/6J female mice prior to treatment. […] Mechanical hyperalgesia was evaluated by using von Frey filament (#2390, IITC Inc., USA), thermal sensitivity was determined by the tail immersion assay (water temperature: 48–49 °C), and motor coordination was assessed by rotarod (#7750, Ugo Basile Biological Research Apparatus, Italy). After the first drug implantation, the body weight was recorded every 6 days throughout the entire experiment."}, "sciatic nerve fibers": {"test_system": "sciatic nerve fibers", "test": "Ultrastructure evaluation of the sciatic nerve (TEM)", "assay_type": "in vivo, mouse", "description": "Sciatic nerves were isolated from mice after drug treatment and behavioral tests to examine the ultrastructure of nerve fibers. […] To evaluate the integrity of myelin, we calculated the G-ratio (axon perimeter/myelin perimeter) in different treatment groups. Because the symptoms of PIPN mostly manifest with sensory impairment,[28] we roughly classified nerve fibers into larger fibers (diameter > 5 μm) and small fibers (diameter < 5 μm) depending on the type of sensory information conveyed.[29] Large fibers with greater than 5 μm diameter carry information related to proprioception, touch, and pressure. In contrast, small fibers with less than 5 μm diameter carry information related to temperature and pain.\nSciatic nerve samples from mice from each treatment group were isolated after the last time point of mouse behavioral tests. Fixation of sciatic nerves with 4% glutaraldehyde and post fixation with 1% osmium tetroxide solution at 4 °C were performed. […] Transmission electron microscopy (H7650, Hitachi) was used to observe the ultrastructure in the cross section of the sciatic nerves."}, "Opiate µ (OP3, MOP)": {"biological_target": "Opiate µ (OP3, MOP) (Homo sapiens, UniProt P35372)", "test": "LeadProfilingScreen: Opiate µ (OP3, MOP)", "assay_type": "binding"}, "Transporter, GABA": {"biological_target": "Transporter, GABA (Rattus norvegicus, UniProt P23978)", "test": "LeadProfilingScreen: Transporter, GABA", "assay_type": "binding"}, "[2]": {"test_system": "Purinergic P2Y, Non-Selective", "test": "LeadProfilingScreen: Purinergic P2Y, Non-Selective", "assay_type": "binding, rat", "conditions": "10 μM"}, "[3]": {"test_system": "mouse primary DRG neurons", "test": "Neurite outgrowth assay of DRG neurons (image-based HCS) against paclitaxel-induced neurotoxicity", "assay_type": "cell-based", "conditions": "for activation at 1 µM: Mus musculus, DRG neuron", "protocol": "All these 19 compounds were then subjected to the neurite outgrowth assay of dorsal root ganglion (DRG) neurons paired with an image-based HCS to analyze whether they had neuroprotective potential. Quantification of neurite outgrowth under different regimens is shown in Figure 3, wherein DRG neurons incubated in 50 nM paclitaxel could cause 60% reduction in neurite outgrowth compared to the control (no drug treatment). […] Taken together, CN016 is selected as a promising lead for further development.\nPrimary cortical or DRG cells were fixed with 4% paraformaldehyde for 15 min following compound and paclitaxel treatment. After washing with PBS, the fixed cells were permeabilized with PBS containing 0.05% Triton X-100 for 20 min and then blocked with commercial blocking buffer (#GTX30963; GeneTex, USA) at room temperature for 1 h. Subsequently, the cortical cells were stained for the extending processes and synaptic puncta by using anti-MAP2 (#MBS502140, 1:500; Mybiosource, USA) and anti-synaptophysin (#ab32127, 1:500; Abcam, UK) overnight. DRG cells were stained for the neurite and neuron nucleus by using anti-β III tubulin (#D71G9, 1:600; Cell Signaling, USA) and anti-NeuN monoclonal antibody (#MAB377, 1:400; Millipore, USA) overnight. On the second day, the samples were washed for 30 min with wash buffer and incubated with secondary antibodies (Alexa-488, 647 1:600; Thermo Fisher, USA) and 4 μg/mL Hoechst 33258 (#94403-1ML, 1:100; Merck, USA) at room temperature for 1 h. In the initial experiments of screening the potential neuroprotective compound for CIPN, ImageXpress^Micro (IXM) high-content imaging system (Molecular Devices, USA) driven by MetaXpress software was used. Images of treated cells were automatically acquired by using a 10× objective. Twenty-one images per well were taken in each of three channels (DAPI, FITC, and Cy5) to create a whole view of the entire neural network. The integrity of the neural network was evaluated using TIF images by importing them into MetaXpress software for analysis using the module for multiparameter, such as Neurite Outgrowth, Cell Scoring, and Transfluor. Furthermore, the score of synaptogenesis was analyzed in AcuityXpress software (Molecular Devices, USA)."}, "[4]": {"biological_target": "Transporter, Dopamine (DAT) (Homo sapiens, UniProt Q01959)", "test": "LeadProfilingScreen: Transporter, Dopamine (DAT)", "assay_type": "binding"}}, "note": "Structures can show the parent of a compound that is named as a salt. Where two headings read alike, the source gives them in different places.", "data": [{"compound": "O=P(O)(O)CCN1CCC(Nc2cc(N3CCOCC3)nc(NCc3cn(CCCO)nn3)n2)CC1", "note": "[CN016, {2-[4-(2-{[1-(3-Hydroxy-propyl)-1H-[1,2,3]triazol-4-ylmethyl]-amino}-6-morpholin-4-yl-pyrimidin-4-ylamino)-piperidin-1-yl]-ethyl}-phosphonic Acid Hydrobromide Salt]", "values": [{"measurement": "inhibition at 10 µM", "setting": "Melatonin MT1", "result": 6, "unit": "%"}, {"measurement": "inhibition at 10 µM", "setting": "Endothelin ETB", "result": -1, "unit": "%"}, {"measurement": "inhibition at 10 µM", "setting": "Histamine H2", "result": 0, "unit": "%"}, {"measurement": "Inhibition (%), Calcium Channel L-Type, Dihydropyridine", "setting": "[1]", "result": 14, "unit": "%"}, {"measurement": "motor coordination (rotarod test)", "setting": "C57BL/6 mice", "result": "neither paclitaxel treatment nor pretreated CN016 affected motor coordination"}, {"measurement": "myelinated fiber density of sciatic nerve (restoration of fiber loss)", "setting": "sciatic nerve fibers; dose-dependent, particularly at 20 mg/kg", "result": "significantly restored"}, {"measurement": "integrity of large fibers (diameter > 5 μm) of sciatic nerve", "setting": "sciatic nerve fibers; paclitaxel with pretreated CN016 5, 10 and 20 mg/kg", "result": "did not affect the integrity of large fibers"}, {"measurement": "G-ratio in small fibers (diameter < 5 μm) of sciatic nerve", "setting": "sciatic nerve fibers; pretreated, particularly at 10 or 20 mg/kg, paclitaxel-treated mice", "result": "could rescue the observed axonal damage"}, {"measurement": "proportion of atypical mitochondria in sciatic nerve", "setting": "sciatic nerve fibers; pretreatment, paclitaxel-treated mice", "result": "significantly decreased"}, {"measurement": "inhibition at 10 µM", "setting": "Opiate µ (OP3, MOP)", "result": 1, "unit": "%"}, {"measurement": "inhibition at 10 µM", "setting": "Transporter, GABA", "result": 2, "unit": "%"}, {"measurement": "Inhibition (%), Purinergic P2Y", "setting": "[2]", "result": 9, "unit": "%"}, {"measurement": "activation at 1 µM", "setting": "[3]; Table 1, A: neurite outgrowth (% of control) of test compound 1000 nM + paclitaxel 50 nM, B: paclitaxel 50 nM alone, DRG neurons, read-out: Neuroprotection rate = (A-B)±S.E.M [%]", "result": 21, "unit": "%"}, {"measurement": "activation at 1 µM", "setting": "[3]; Table S2, test compound 1000 nM + paclitaxel 50 nM minus paclitaxel 50 nM, read-out: Neuroprotection rate = (A-B) ± S.E.M [%]", "result": "21 ± 0.77", "unit": "%"}, {"measurement": "activation at 1 µM", "setting": "[3]; supplementary CSV, test compound 1000 nM, read-out: A-B (A: neurite outgrowth (% of control) of test compound (1000 nM) + paclitaxel (50 nM), B: of paclitaxel (50 nM))", "result": 21, "unit": "%"}, {"measurement": "in vitro effective concentration", "setting": "[3]; neurite outgrowth assay", "result": 10, "unit": "nM"}, {"measurement": "protective efficacy against paclitaxel-induced neurotoxicity (in words)", "setting": "[3]; pretreated, + 50 nM paclitaxel, DRG neurons", "result": "exhibited protective efficacy"}, {"measurement": "increase of neurite length compared to the positive control (paclitaxel-treated alone)", "setting": "[3]; pretreated, + 50 nM paclitaxel, Figure 3B", "result": "24–28%"}, {"measurement": "inhibition at 10 µM", "setting": "[4]", "result": 0, "unit": "%"}]}]}
